Results published in patent US20050244472A1, “Intraocular drug delivery systems containing excipients with reduced toxicity and related methods” (Allergan, Inc., priority 2004, published 2005).
Read-outs that look alike come from different tables or passages of the source.

Tests used:
ARPE-19 cells [1] = system: ARPE-19 cells
Excerpt: Cell viability and cell morphology were examined to evaluate the toxicity of excipients on retinal pigment epithelial cells. The human retina cell line used in these experiments is the ARPE-19 cell line (human adult-derived retinal pigmented epithelial cells). […] They form tight-junctions with transepithelial resistance of monolayers (Dunn K C et al., supra). […]
To assess cell viability, mitochondrial metabolism was quantified through conventional colorometric assays (i.e., the MTT assay). […] A resulting purple solution is spectrophotometrically measured. Cell viability is relative to amount of formazan and calculated as a percentage of remaining treated compared to non-treated cells.
Results from the MTT assay were expressed as a percentage of cell viability calculated using the following equation: % cell viability=ODtest/ODcontrol×100.
For each experiment, one concentration was performed in triplicate. Each point was spectrophotometrically read twice. Average of readings was calculated, then average from these 3 values was determined.
After 3 experiments were independently completed under the same conditions, a graph was plotted with cell viability expressed as a function of concentration (dose response) and for various incubation period (time course). […]

ARPE-19 cells [2] = type: cell-based
Protocol: Cell morphology was visualized using light microscopy. Cell morphology observation using light microscopy permits determination of (i) cell number and density and (ii) whether or not cells in contact with an excipient agent display modified phenotype compared to a non-treated population of cells.
Cell morphology was analyzed in parallel by semi-quantitative scoring ranging from 5 to 1, from basal to lethal phenotype respectively, as shown in FIG. 23.
More specifically, cells were removed from an incubator for examination. Morphological shape of cells was visualized using a light microscope and CCD camera. Every 3 wells of a given concentration was observed through image analysis software. Then, a representative photograph describing the average appearance of cells was saved. The supernatant was either, kept for further predefined experiments to perform, or removed using vacuum-pump.
Resulting semi-quantitative scoring is represented as a function of time course and dose response. Score 5: wild type phenotype of non-treated cells, 100% confluent adherent cells. This phenotype very much vary following post-seeding time. For example, at confluence ARPE-19 cells at 1 day appear well defined with visible outer membrane and dark grey cytoplasm. After 3 days of confluence, limits between cells become less visible and cells adopt a more hexagonal shape and constitute an epithelium-like uniform dense structure. Score 4: density<100%. Cell shape has changed, some spaces are present between cells, few cells possibly detached. Score 3: […]. Spaces are sometimes present among cells, areas appears confluent while in others, cells detached. General cell shape starts showing non negligible alterations. Score 2: Cell density<50%. Cells adopt exclusively stressed appearance, presence of mass dead floating cells. Score 1: Cell density<10%. Presence of almost exclusively dead cells.
Based on quotation, each condition of the applied compound was given a score which allow to a morphology evolution profile to be prepared, ie. cell morphology as a function of compound concentration and time of exposure. […]

[3] = pH of excipient-containing incubating solutions; type: physicochemical
Protocol: For each concentration of tested compound, pH and osmolarity parameters were measured.

Substance: hydroxypropyl gamma-cyclodextrin [Cavasol]
- overall cytotoxicity to ARPE-19 cells (conclusion in words) (ARPE-19 cells [1]): overall limited cytotoxicity
- Cell Morphology score, Mean (ARPE-19 cells [2]; 0.05% excipient, 24 Hours): 5.0
- Cell Morphology score, experiment 1 (ARPE-19 cells [2]; 0.05% excipient, 24 Hours): 5 (Score 5: wild type phenotype of non-treated cells, 100% confluent adherent cells)
- Cell Morphology score, experiment 2 (ARPE-19 cells [2]; 0.05% excipient, 24 Hours): 5 (Score 5: wild type phenotype of non-treated cells, 100% confluent adherent cells)
- Cell Morphology score, experiment 3 (ARPE-19 cells [2]; 0.05% excipient, 24 Hours): 5 (Score 5: wild type phenotype of non-treated cells, 100% confluent adherent cells)
- Cell Morphology score, Mean (ARPE-19 cells [2]; 0.05% excipient, 48 Hours): 5.0
- Cell Morphology score, experiment 1 (ARPE-19 cells [2]; 0.05% excipient, 48 Hours): 5 (Score 5: wild type phenotype of non-treated cells, 100% confluent adherent cells)
- Cell Morphology score, experiment 2 (ARPE-19 cells [2]; 0.05% excipient, 48 Hours): 5 (Score 5: wild type phenotype of non-treated cells, 100% confluent adherent cells)
- Cell Morphology score, experiment 3 (ARPE-19 cells [2]; 0.05% excipient, 48 Hours): 5 (Score 5: wild type phenotype of non-treated cells, 100% confluent adherent cells)
- Cell Morphology score, Mean (ARPE-19 cells [2]; 0.05% excipient, 72 Hours): 5.0
- Cell Morphology score, experiment 1 (ARPE-19 cells [2]; 0.05% excipient, 72 Hours): 5 (Score 5: wild type phenotype of non-treated cells, 100% confluent adherent cells)
- Cell Morphology score, experiment 2 (ARPE-19 cells [2]; 0.05% excipient, 72 Hours): 5 (Score 5: wild type phenotype of non-treated cells, 100% confluent adherent cells)
- Cell Morphology score, experiment 3 (ARPE-19 cells [2]; 0.05% excipient, 72 Hours): 5 (Score 5: wild type phenotype of non-treated cells, 100% confluent adherent cells)
- Cell Morphology score, Mean (ARPE-19 cells [2]; 0.1% excipient, 24 Hours): 5.0
- Cell Morphology score, experiment 1 (ARPE-19 cells [2]; 0.1% excipient, 24 Hours): 5 (Score 5: wild type phenotype of non-treated cells, 100% confluent adherent cells)
- Cell Morphology score, experiment 2 (ARPE-19 cells [2]; 0.1% excipient, 24 Hours): 5 (Score 5: wild type phenotype of non-treated cells, 100% confluent adherent cells)
- Cell Morphology score, experiment 3 (ARPE-19 cells [2]; 0.1% excipient, 24 Hours): 5 (Score 5: wild type phenotype of non-treated cells, 100% confluent adherent cells)
- Cell Morphology score, Mean (ARPE-19 cells [2]; 0.1% excipient, 48 Hours): 5.0
- Cell Morphology score, experiment 1 (ARPE-19 cells [2]; 0.1% excipient, 48 Hours): 5 (Score 5: wild type phenotype of non-treated cells, 100% confluent adherent cells)
- Cell Morphology score, experiment 2 (ARPE-19 cells [2]; 0.1% excipient, 48 Hours): 5 (Score 5: wild type phenotype of non-treated cells, 100% confluent adherent cells)
- Cell Morphology score, experiment 3 (ARPE-19 cells [2]; 0.1% excipient, 48 Hours): 5 (Score 5: wild type phenotype of non-treated cells, 100% confluent adherent cells)
- Cell Morphology score, Mean (ARPE-19 cells [2]; 0.1% excipient, 72 Hours): 4.7
- Cell Morphology score, experiment 1 (ARPE-19 cells [2]; 0.1% excipient, 72 Hours): 5 (Score 5: wild type phenotype of non-treated cells, 100% confluent adherent cells)
- Cell Morphology score, experiment 2 (ARPE-19 cells [2]; 0.1% excipient, 72 Hours): 5 (Score 5: wild type phenotype of non-treated cells, 100% confluent adherent cells)
- Cell Morphology score, experiment 3 (ARPE-19 cells [2]; 0.1% excipient, 72 Hours): 4 (Score 4: density<100%)
- Cell Morphology score, Mean (ARPE-19 cells [2]; 0.5% excipient, 24 Hours): 5.0
- Cell Morphology score, experiment 1 (ARPE-19 cells [2]; 0.5% excipient, 24 Hours): 5 (Score 5: wild type phenotype of non-treated cells, 100% confluent adherent cells)
- Cell Morphology score, experiment 2 (ARPE-19 cells [2]; 0.5% excipient, 24 Hours): 5 (Score 5: wild type phenotype of non-treated cells, 100% confluent adherent cells)
- Cell Morphology score, experiment 3 (ARPE-19 cells [2]; 0.5% excipient, 24 Hours): 5 (Score 5: wild type phenotype of non-treated cells, 100% confluent adherent cells)
- Cell Morphology score, Mean (ARPE-19 cells [2]; 0.5% excipient, 48 Hours): 4.7
- Cell Morphology score, experiment 1 (ARPE-19 cells [2]; 0.5% excipient, 48 Hours): 5 (Score 5: wild type phenotype of non-treated cells, 100% confluent adherent cells)
- Cell Morphology score, experiment 2 (ARPE-19 cells [2]; 0.5% excipient, 48 Hours): 5 (Score 5: wild type phenotype of non-treated cells, 100% confluent adherent cells)
- Cell Morphology score, experiment 3 (ARPE-19 cells [2]; 0.5% excipient, 48 Hours): 4 (Score 4: density<100%)
- Cell Morphology score, Mean (ARPE-19 cells [2]; 0.5% excipient, 72 Hours): 4.3
- Cell Morphology score, experiment 1 (ARPE-19 cells [2]; 0.5% excipient, 72 Hours): 5 (Score 5: wild type phenotype of non-treated cells, 100% confluent adherent cells)
- Cell Morphology score, experiment 2 (ARPE-19 cells [2]; 0.5% excipient, 72 Hours): 5 (Score 5: wild type phenotype of non-treated cells, 100% confluent adherent cells)
- Cell Morphology score, experiment 3 (ARPE-19 cells [2]; 0.5% excipient, 72 Hours): 3 (Score 3: 80%<Cell density<40%)
- Cell Morphology score, Mean (ARPE-19 cells [2]; 1.0% excipient, 24 Hours): 5.0
- Cell Morphology score, experiment 1 (ARPE-19 cells [2]; 1.0% excipient, 24 Hours): 5 (Score 5: wild type phenotype of non-treated cells, 100% confluent adherent cells)
- Cell Morphology score, experiment 2 (ARPE-19 cells [2]; 1.0% excipient, 24 Hours): 5 (Score 5: wild type phenotype of non-treated cells, 100% confluent adherent cells)
- Cell Morphology score, experiment 3 (ARPE-19 cells [2]; 1.0% excipient, 24 Hours): 5 (Score 5: wild type phenotype of non-treated cells, 100% confluent adherent cells)
- Cell Morphology score, Mean (ARPE-19 cells [2]; 1.0% excipient, 48 Hours): 4.7
- Cell Morphology score, experiment 1 (ARPE-19 cells [2]; 1.0% excipient, 48 Hours): 5 (Score 5: wild type phenotype of non-treated cells, 100% confluent adherent cells)
- Cell Morphology score, experiment 2 (ARPE-19 cells [2]; 1.0% excipient, 48 Hours): 5 (Score 5: wild type phenotype of non-treated cells, 100% confluent adherent cells)
- Cell Morphology score, experiment 3 (ARPE-19 cells [2]; 1.0% excipient, 48 Hours): 4 (Score 4: density<100%)
- Cell Morphology score, Mean (ARPE-19 cells [2]; 1.0% excipient, 72 Hours): 3.7
- Cell Morphology score, experiment 1 (ARPE-19 cells [2]; 1.0% excipient, 72 Hours): 5 (Score 5: wild type phenotype of non-treated cells, 100% confluent adherent cells)
- Cell Morphology score, experiment 2 (ARPE-19 cells [2]; 1.0% excipient, 72 Hours): 5 (Score 5: wild type phenotype of non-treated cells, 100% confluent adherent cells)
- Cell Morphology score, experiment 3 (ARPE-19 cells [2]; 1.0% excipient, 72 Hours): 1 (Score 1: Cell density<10%)
- Cell Morphology score, Mean (ARPE-19 cells [2]; 5.0% excipient, 24 Hours): 4.3
- Cell Morphology score, experiment 1 (ARPE-19 cells [2]; 5.0% excipient, 24 Hours): 5 (Score 5: wild type phenotype of non-treated cells, 100% confluent adherent cells)
- Cell Morphology score, experiment 2 (ARPE-19 cells [2]; 5.0% excipient, 24 Hours): 5 (Score 5: wild type phenotype of non-treated cells, 100% confluent adherent cells)
- Cell Morphology score, experiment 3 (ARPE-19 cells [2]; 5.0% excipient, 24 Hours): 3 (Score 3: 80%<Cell density<40%)
- Cell Morphology score, Mean (ARPE-19 cells [2]; 5.0% excipient, 48 Hours): 4.7
- Cell Morphology score, experiment 1 (ARPE-19 cells [2]; 5.0% excipient, 48 Hours): 5 (Score 5: wild type phenotype of non-treated cells, 100% confluent adherent cells)
- Cell Morphology score, experiment 2 (ARPE-19 cells [2]; 5.0% excipient, 48 Hours): 5 (Score 5: wild type phenotype of non-treated cells, 100% confluent adherent cells)
- Cell Morphology score, experiment 3 (ARPE-19 cells [2]; 5.0% excipient, 48 Hours): 4 (Score 4: density<100%)
- Cell Morphology score, Mean (ARPE-19 cells [2]; 5.0% excipient, 72 Hours): 3.3
- Cell Morphology score, experiment 1 (ARPE-19 cells [2]; 5.0% excipient, 72 Hours): 5 (Score 5: wild type phenotype of non-treated cells, 100% confluent adherent cells)
- Cell Morphology score, experiment 2 (ARPE-19 cells [2]; 5.0% excipient, 72 Hours): 4 (Score 4: density<100%)
- Cell Morphology score, experiment 3 (ARPE-19 cells [2]; 5.0% excipient, 72 Hours): 1 (Score 1: Cell density<10%)
- Cell Morphology score, Mean (ARPE-19 cells [2]; 10.0% excipient, 24 Hours): 4.3
- Cell Morphology score, experiment 1 (ARPE-19 cells [2]; 10.0% excipient, 24 Hours): 5 (Score 5: wild type phenotype of non-treated cells, 100% confluent adherent cells)
- Cell Morphology score, experiment 2 (ARPE-19 cells [2]; 10.0% excipient, 24 Hours): 5 (Score 5: wild type phenotype of non-treated cells, 100% confluent adherent cells)
- Cell Morphology score, experiment 3 (ARPE-19 cells [2]; 10.0% excipient, 24 Hours): 3 (Score 3: 80%<Cell density<40%)
- Cell Morphology score, Mean (ARPE-19 cells [2]; 10.0% excipient, 48 Hours): 3.3
- Cell Morphology score, experiment 1 (ARPE-19 cells [2]; 10.0% excipient, 48 Hours): 5 (Score 5: wild type phenotype of non-treated cells, 100% confluent adherent cells)
- Cell Morphology score, experiment 2 (ARPE-19 cells [2]; 10.0% excipient, 48 Hours): 4 (Score 4: density<100%)
- Cell Morphology score, experiment 3 (ARPE-19 cells [2]; 10.0% excipient, 48 Hours): 1 (Score 1: Cell density<10%)
- Cell Morphology score, Mean (ARPE-19 cells [2]; 10.0% excipient, 72 Hours): 3.0
- Cell Morphology score, experiment 1 (ARPE-19 cells [2]; 10.0% excipient, 72 Hours): 4 (Score 4: density<100%)
- Cell Morphology score, experiment 2 (ARPE-19 cells [2]; 10.0% excipient, 72 Hours): 4 (Score 4: density<100%)
- Cell Morphology score, experiment 3 (ARPE-19 cells [2]; 10.0% excipient, 72 Hours): 1 (Score 1: Cell density<10%)
- pH ([3]; 0.1% excipient dilution in culture medium): 7.6
- pH ([3]; 0.5% excipient dilution in culture medium): 7.6
- pH ([3]; 1% excipient dilution in culture medium): 7.6
- pH ([3]; 5% excipient dilution in culture medium): 7.6
- pH ([3]; 10% excipient dilution in culture medium): 7.6
- pH ([3]; 20% excipient dilution in culture medium): 7.6
